The record followed here is US7439264B2, “Therapeutic compounds” (President and Fellows of Harvard College, priority 2002, dated 2008).

Chains of the proteins cited; added tags and fusions are not shown. Residues count along the entry.
UniProt Q9GJT6, whole entry: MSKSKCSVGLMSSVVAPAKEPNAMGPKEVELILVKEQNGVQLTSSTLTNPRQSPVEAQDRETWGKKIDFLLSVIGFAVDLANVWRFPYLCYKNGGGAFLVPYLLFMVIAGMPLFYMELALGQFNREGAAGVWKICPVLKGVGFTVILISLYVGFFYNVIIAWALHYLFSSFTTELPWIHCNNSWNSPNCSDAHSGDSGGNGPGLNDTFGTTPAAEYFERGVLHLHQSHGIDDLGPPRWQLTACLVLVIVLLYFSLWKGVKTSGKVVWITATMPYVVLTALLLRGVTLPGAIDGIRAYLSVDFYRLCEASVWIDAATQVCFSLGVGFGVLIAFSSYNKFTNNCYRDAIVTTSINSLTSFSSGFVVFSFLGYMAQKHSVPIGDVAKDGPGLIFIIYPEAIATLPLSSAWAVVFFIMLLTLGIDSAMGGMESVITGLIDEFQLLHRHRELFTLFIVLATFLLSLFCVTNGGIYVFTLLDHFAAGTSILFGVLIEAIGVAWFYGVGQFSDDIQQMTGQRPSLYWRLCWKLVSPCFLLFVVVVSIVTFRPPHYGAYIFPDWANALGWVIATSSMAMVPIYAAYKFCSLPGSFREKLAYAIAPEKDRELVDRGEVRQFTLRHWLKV
UniProt A7KAX8, 1-630: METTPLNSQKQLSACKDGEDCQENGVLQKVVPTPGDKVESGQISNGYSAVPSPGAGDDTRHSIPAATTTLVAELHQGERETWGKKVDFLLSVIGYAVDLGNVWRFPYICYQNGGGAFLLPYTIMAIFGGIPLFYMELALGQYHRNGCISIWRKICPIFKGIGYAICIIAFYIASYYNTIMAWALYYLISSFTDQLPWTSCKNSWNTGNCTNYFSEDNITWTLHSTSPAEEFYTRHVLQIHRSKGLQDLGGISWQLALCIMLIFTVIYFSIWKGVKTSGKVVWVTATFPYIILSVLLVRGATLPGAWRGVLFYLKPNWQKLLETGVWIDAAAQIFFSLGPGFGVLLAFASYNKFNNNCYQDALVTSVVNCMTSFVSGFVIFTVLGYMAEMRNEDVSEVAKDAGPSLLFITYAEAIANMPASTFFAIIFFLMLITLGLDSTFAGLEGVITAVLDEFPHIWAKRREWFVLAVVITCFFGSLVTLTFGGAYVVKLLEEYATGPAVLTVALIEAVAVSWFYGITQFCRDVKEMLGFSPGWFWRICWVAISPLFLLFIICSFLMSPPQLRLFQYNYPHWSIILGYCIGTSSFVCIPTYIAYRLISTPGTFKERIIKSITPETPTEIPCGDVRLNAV

For assay [1], the target named is dopamine transporter (DAT) (UniProt Q9GJT6). The experiment in a line: Competition binding with [3H]WIN 35,428 at the dopamine transporter. As to conditions: read-out: DAT (binding, Table 6); unit inferred.
Assay [2] addresses serotonin transporter (SERT) (UniProt A7KAX8). Briefly: Competition binding with [3H]citalopram at the serotonin transporter. As to conditions: read-out: SERT (binding, Table 6); unit inferred.

In the case of `COC(=O)C1C(c2ccc(F)cc2)CC2CCC1N2CCN1C(=O)C=CC1=O` (single isomer, unassigned), the IC50 in assay [1] came out at 0.12 µM; in assay [2] it was 3.6 µM.
